Measurements from publication PMC7723054.
Some of the results follow.

T1: LIN28A (human?, UniProt Q9H9Z2 1-209)
T1 sequence: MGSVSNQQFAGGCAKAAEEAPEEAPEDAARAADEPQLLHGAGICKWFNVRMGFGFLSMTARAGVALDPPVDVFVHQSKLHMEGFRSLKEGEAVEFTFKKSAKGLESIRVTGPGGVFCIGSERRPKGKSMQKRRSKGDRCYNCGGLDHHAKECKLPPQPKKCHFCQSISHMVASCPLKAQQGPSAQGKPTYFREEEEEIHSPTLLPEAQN

T2: CIRBP (Homo sapiens, UniProt Q14011 1-172)
T2 sequence: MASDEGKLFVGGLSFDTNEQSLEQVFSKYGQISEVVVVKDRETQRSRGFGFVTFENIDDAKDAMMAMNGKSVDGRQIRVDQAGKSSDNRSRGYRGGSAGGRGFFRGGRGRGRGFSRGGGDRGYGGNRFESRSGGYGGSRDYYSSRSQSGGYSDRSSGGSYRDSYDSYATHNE

T3: DHX36 (Homo sapiens, UniProt Q9H2U1 1-1008)
T3 sequence: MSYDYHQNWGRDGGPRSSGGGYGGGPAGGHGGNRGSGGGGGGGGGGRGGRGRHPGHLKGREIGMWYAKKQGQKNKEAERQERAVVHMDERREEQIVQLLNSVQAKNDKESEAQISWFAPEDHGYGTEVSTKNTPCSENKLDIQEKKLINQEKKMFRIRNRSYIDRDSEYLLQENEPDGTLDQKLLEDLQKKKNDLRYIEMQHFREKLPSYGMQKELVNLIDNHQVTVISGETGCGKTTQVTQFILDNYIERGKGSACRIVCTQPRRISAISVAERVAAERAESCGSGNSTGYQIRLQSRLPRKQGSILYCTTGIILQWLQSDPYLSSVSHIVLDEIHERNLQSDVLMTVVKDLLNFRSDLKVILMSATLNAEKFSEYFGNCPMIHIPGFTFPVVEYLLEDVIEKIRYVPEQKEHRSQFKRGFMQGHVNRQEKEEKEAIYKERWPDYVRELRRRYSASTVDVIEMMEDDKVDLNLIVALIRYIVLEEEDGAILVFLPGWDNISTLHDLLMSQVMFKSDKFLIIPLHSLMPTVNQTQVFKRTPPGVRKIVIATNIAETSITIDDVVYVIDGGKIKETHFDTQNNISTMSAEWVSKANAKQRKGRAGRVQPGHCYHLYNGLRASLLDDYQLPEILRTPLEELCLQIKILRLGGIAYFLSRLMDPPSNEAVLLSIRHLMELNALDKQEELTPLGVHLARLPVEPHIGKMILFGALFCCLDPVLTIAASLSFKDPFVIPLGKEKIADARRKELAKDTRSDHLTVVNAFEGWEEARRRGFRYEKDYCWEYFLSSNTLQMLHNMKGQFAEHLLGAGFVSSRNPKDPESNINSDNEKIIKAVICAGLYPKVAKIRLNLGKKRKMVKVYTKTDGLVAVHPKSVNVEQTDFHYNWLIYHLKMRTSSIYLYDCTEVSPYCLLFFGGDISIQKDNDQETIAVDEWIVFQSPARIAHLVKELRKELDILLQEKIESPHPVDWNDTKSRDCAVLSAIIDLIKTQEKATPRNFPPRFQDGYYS

B1: NEAT1_ParasoR_ID29 (structured_RNA)
RNA: GGGACCUGCUGAUAGUCUAAAAGCCCCGGGUGUACGAAGUUUCAGCGUGUAUGAAUUUAUAAAUCACUGGUCUUGUAAUUAAAAUUCAAACACGCUGAAGCUUCGUGCAC
B2: hsa-mir-3920 (structured_RNA)
RNA: GGGAGAGCUAAAAUUGCACGAAAUGCAUGGUGUACGAAGUUUCAGCUAGUACAGGUGAGAUUGUACUGGCUGAAGCUUCGUGCAC
B3: hsa-mir-3175 (structured_RNA)
RNA: GGGAAAACUGCAACAACGAUAGCGCUUCGGUGUACGAAGUUUCAGCACGUCUGGCCGCGUGCGCAUGUGCUGAAGCUUCGUGCAC
B4: hsa-mir-150 (structured_RNA)
RNA: GGGACUCCGUGGGUAGAAAAGACACGUUGGUGUACGAAGUUUCAGCCCAGUGCUGGGCUCAGACCCUGGGCUGAAGCUUCGUGCAC
B5: hsa-mir-6071 (structured_RNA)
RNA: GGGACCAGGCCCCGAAAGUUCGAAGAUCGGUGUACGAAGUUUCAGCAGGCUCUGGGUCCGGCUUACUCCCUAGCUUACUGUCCUCAGAACCCGCUGAAGCUUCGUGCAC
B6: hsa-mir-6813 (structured_RNA)
RNA: GGGAACAAGGGUUACGUAUACAACGUUUGGUGUACGAAGUUUCAGCGGUUCUCAGUCAGAACCGCUGAAGCUUCGUGCAC
B7: hsa-mir-3152 (structured_RNA)
RNA: GGGAAACCAGAGAUCGUGUAGGGAAUAUGGUGUACGAAGUUUCAGCCACAAGACUAGGCUUCCCUGUGGCUGAAGCUUCGUGCAC
B8: NEAT1_ParasoR_ID42 (structured_RNA)
RNA: GGGAAAGUUCUCCGGCCUGGAGUCACACGGUGUACGAAGUUUCAGCAGUGUCCAUUAUGUCACUGCUGAAGCUUCGUGCAC
B9: hsa-mir-125b-1 (structured_RNA)
RNA: GGGAAGGUCCUAGCGACGUAUUACCAAAGGUGUACGAAGUUUCAGCUUGUGAUGUUUACCGUUUAAAUCCACGGGCUGAAGCUUCGUGCAC
B10: hsa-mir-596 (structured_RNA)
RNA: GGGAAAACAGUAGCGAACCGGACCUGUCGGUGUACGAAGUUUCAGCCGGGAACCUGCCUCCCGGCUGAAGCUUCGUGCAC
B11: hsa-mir-4288 (structured_RNA)
RNA: GGGAAGCCAAUGAGGACUCUCAGAGCUAGGUGUACGAAGUUUCAGCCAGCACUGAGCAGGCAGUGUUGUGCUGAAGCUUCGUGCAC
B12: hsa-mir-4283-1_4283-2 (structured_RNA)
RNA: GGGAACGUAAAAUUAGGGCCAGACGAAUGGUGUACGAAGUUUCAGCGUUUGCAAGGGGUGUUUCUGUCCAUGGUCAGGCGCUGAAGCUUCGUGCAC
B13: hsa-mir-1910 (structured_RNA)
RNA: GGGAACCAGCUGUGUACGGAUUCUACGUGGUGUACGAAGUUUCAGCCCGCCUUUGUGCUGUCCUUGGAGGGAGGGCUGAAGCUUCGUGCAC
B14: hsa-mir-4322 (structured_RNA)
RNA: GGGAAACAUUGGACGCUAACCGUGGAGCGGUGUACGAAGUUUCAGCGUGUCGCCCCACGAGGGGGACUGUGCUGAAGCUUCGUGCAC
B15: hsa-mir-4294 (structured_RNA)
RNA: GGGAACGUUCGAGACCCUCUCUUGUGCCGGUGUACGAAGUUUCAGCGGGCCAUGUCUGUGAGGGCCCAGCUGAAGCUUCGUGCAC
B16: hsa-mir-378d-2 (structured_RNA)
RNA: GGGAAGGUGUACGCAGCCAUCUUAGGAUGGUGUACGAAGUUUCAGCAAAACUUUCAUCCAAGUCAUUGCUGAAGCUUCGUGCAC
B17: hsa-mir-3929 (structured_RNA)
RNA: GGGACGACUUACCUGUCGUCGGUUAGCUGGUGUACGAAGUUUCAGCAAUCCCAGCACUUUGGGAGGCUGAAGCUUCGUGCAC
B18: hsa-mir-5685 (structured_RNA)
RNA: GGGAAUCGAGUUCUCCCGGUAAGACAUCGGUGUACGAAGUUUCAGCCGGGCCCCUCCCCUCAAUGGGCCCGGCUGAAGCUUCGUGCAC
B19: hsa-mir-548o-2 (structured_RNA)
RNA: GGGAUAACAGCCCCAGCGAGUCACUCGUGGUGUACGAAGUUUCAGCUUUGCCAUUAAAAGUAAUGCGGCCAAGCUGAAGCUUCGUGCAC
B20: hsa-mir-4260 (structured_RNA)
RNA: GGGAACAAGUUGAGCGAGAUCCCGACAAGGUGUACGAAGUUUCAGCCCCACUUCCUGGAGCUGAAGCUUCGUGCAC
B21: hsa-mir-140 (structured_RNA)
RNA: GGGAACGCACUAUCCGGUACUUCCUCGGGGUGUACGAAGUUUCAGCGGUAGGUUACGUCAUGCUGUUCUACCGCUGAAGCUUCGUGCAC
B22: hsa-mir-3198-1 (structured_RNA)
RNA: GGGAAACGAAAAUAGAGUUUGAACGACUGGUGUACGAAGUUUCAGCAGCAGUACCAGACGGUUCUGUGGGCUGAAGCUUCGUGCAC
B23: hsa-mir-767 (structured_RNA)
RNA: GGGAAAUUGUCAAUCCGGGACCAUUCUGGGUGUACGAAGUUUCAGCCAUGCAGCAUGCUUGUCUGGCUGAAGCUUCGUGCAC
B24: hsa-mir-514a-1 (structured_RNA)
RNA: GGGACAGUACCUGGAUGGGCUACAUUUGGGUGUACGAAGUUUCAGCCAAUCAUGUAUAAUUAAAUUUGAUUGGCUGAAGCUUCGUGCAC
B25: hsa-mir-4512 (structured_RNA)
RNA: GGGAAGAUGCUCUCCGGGCGAACUUAGUGGUGUACGAAGUUUCAGCCUCGUCUCUACAAAAAAUUGAGACAGGGCUGAAGCUUCGUGCAC
B26: hsa-mir-3149 (structured_RNA)
RNA: GGGACAGGUGGUAAGGUAGGCGGAAACAGGUGUACGAAGUUUCAGCCACACAUACAUAUAUAUAUGUUUGGCUGAAGCUUCGUGCAC

Each binder was assayed against T1, LIN28A (assay: FOREST: bead pull-down of RNA structure library v1, barcode microarray; U1A/LIN28A: 20 mM HEPES pH 7.5, 80 mM KCl, 20 mM NaCl, 10% glycerol, 2 mM DTT, 0.1 ug/uL BSA, 4 C; BG4/CIRBP/DHX36: 10 mM Tris-HCl pH 7.5, 100 mM KCl (or LiCl),; high values mean tight binding).
B1 gave a binding signal of -0.604 z-score.
With B2 the binding signal was -0.595 z-score.
For B3, the binding signal was -0.609 z-score.
Binder B4 has a binding signal of -0.601 z-score.
With B5 the binding signal was -0.623 z-score.
In the case of B6, the binding signal is reported as -0.575 z-score.
B7 gave a binding signal of -0.601 z-score.
In the case of B8, the binding signal is reported as -0.623 z-score.
Work on B9 yielded a binding signal of -0.554 z-score.
With B10 the binding signal was -0.58 z-score.
Work on B11 yielded a binding signal of -0.565 z-score.
Work on B12 yielded a binding signal of -0.575 z-score.
In the case of B13, the binding signal is reported as -0.623 z-score.
In the case of B14, the binding signal is reported as -0.599 z-score.
B15 gave a binding signal of -0.569 z-score.
Binder B16 has a binding signal of -0.551 z-score.
With B17 the binding signal was -0.606 z-score.
B18 was tested, and the binding signal was -0.551 z-score.
For B19, the binding signal was -0.554 z-score.
In the case of B20, the binding signal is reported as -0.565 z-score.
Work on B21 yielded a binding signal of -0.621 z-score.
With B22 the binding signal was -0.597 z-score.
B23 showed a binding signal of -0.569 z-score.
B24 gave a binding signal of -0.589 z-score.
With B25 the binding signal was -0.569 z-score.
B26 was tested, and the binding signal was -0.615 z-score.

These binders were tested against T2, CIRBP in the same assay as above.
Work on B1 yielded a binding signal of 0.0867 z-score.
B2 was tested, and the binding signal was -0.731 z-score.
With B3 the binding signal was 0.0179 z-score.
Work on B4 yielded a binding signal of 0.0994 z-score.
In the case of B5, the binding signal is reported as -0.452 z-score.
Binder B6 has a binding signal of 0.535 z-score.
For B7, the binding signal was -0.272 z-score.
Work on B8 yielded a binding signal of -0.324 z-score.
Work on B9 yielded a binding signal of -0.988 z-score.
In the case of B10, the binding signal is reported as 1.71 z-score.
B11 gave a binding signal of 0.569 z-score.
B12 was tested, and the binding signal was -1.35 z-score.
With B13 the binding signal was -0.409 z-score.
In the case of B14, the binding signal is reported as 0.159 z-score.
For B15, the binding signal was 0.15 z-score.
With B16 the binding signal was 0.377 z-score.
Binder B17 has a binding signal of -0.791 z-score.
Work on B18 yielded a binding signal of -0.519 z-score.
B19 gave a binding signal of -0.952 z-score.
Binder B20 has a binding signal of 0.598 z-score.
In the case of B21, the binding signal is reported as -0.314 z-score.
For B22, the binding signal was 0.881 z-score.
B23 showed a binding signal of 0.392 z-score.
B24 showed a binding signal of -1 z-score.
B25 was tested, and the binding signal was -0.0481 z-score.
B26 was tested, and the binding signal was 0.165 z-score.

Each binder was assayed against T3, DHX36 in the same assay as above.
B1 was tested, and the binding signal was 0.0509 z-score.
For B2, the binding signal was -0.23 z-score.
B3 gave a binding signal of -1.37 z-score.
For B4, the binding signal was -0.104 z-score.
For B5, the binding signal was 0.0634 z-score.
B6 was tested, and the binding signal was -0.492 z-score.
Binder B7 has a binding signal of 0.288 z-score.
B8 gave a binding signal of -0.124 z-score.
Binder B9 has a binding signal of -0.32 z-score.
B10 was tested, and the binding signal was -0.0414 z-score.
In the case of B11, the binding signal is reported as 0.0164 z-score.
Work on B12 yielded a binding signal of -0.26 z-score.
Work on B13 yielded a binding signal of 0.203 z-score.
With B14 the binding signal was -0.335 z-score.
B15 showed a binding signal of 0.119 z-score.
B16 showed a binding signal of 0.203 z-score.
B17 gave a binding signal of -0.823 z-score.
Work on B18 yielded a binding signal of -0.899 z-score.
B19 gave a binding signal of -1.31 z-score.
For B20, the binding signal was 0.173 z-score.
B21 showed a binding signal of -0.65 z-score.
B22 gave a binding signal of -0.672 z-score.
B23 gave a binding signal of -0.864 z-score.
Work on B24 yielded a binding signal of -0.643 z-score.
B25 was tested, and the binding signal was -0.393 z-score.
In the case of B26, the binding signal is reported as 0.156 z-score.
